Laboratory results as given in US10792371B2, “c-Met targeting compound-bioactive material conjugate and use thereof” (Samsung Electronics Co., Ltd., priority 2013, dated 2020).

Tested on: OE33 (esophageal cancer cell line overexpressing c-Met and HER2)
Assay: Internalization of fluorescently labeled antibody, confocal microscopy
Type: cell-based
Details: 1 ug/ml labeled antibody, 0, 10, 30 or 60 min, confocal microscope (FIG. 1)
Method: The cell line OE33 (esophageal cancer cell line, ECACC (European Collection of Cell Cultures), #96070808), which overexpresses both c-Met and HER2, was incubated for 0, 10, 30 or 60 min with 1 ug/ml of the anti-c-Met antibody L3-1Y/IgG2, or Herceptin (Roche) to which an equal amount of the fluorescent FNR675 (BioActs, # PWS1515) was previously labeled, and then observed under a confocal microscope (FIG. 1A). Separately, OE33 cells were incubated in the presence of both FITC-labeled anti-c-Met antibody L3-1Y/IgG2 and FNR675-labeled Herceptin, each 1 ug/ml, followed by confocal microscopy to compare internalization into the same cells therebetween (FIG. 1B).

Substance: Herceptin: anti-HER2 antibody Herceptin (Roche) [reference compound]
- internalization into cells: not to enter the cells, but to remain on cell surfaces
